# Ab-91 heavy chain CDR variants: yeast mating affinities

Antigen: PDVDLGDISGINAS, a 14-residue peptide of the SARS-CoV-2 spike HR2 region.

Ab-91 is the parent antibody, in scFv form: VL, then three GGGGS repeats, then VH. The light chain is unchanged in all variants.
VL: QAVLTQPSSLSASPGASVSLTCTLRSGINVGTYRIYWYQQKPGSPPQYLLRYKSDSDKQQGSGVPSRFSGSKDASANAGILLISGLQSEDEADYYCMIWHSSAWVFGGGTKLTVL
VH: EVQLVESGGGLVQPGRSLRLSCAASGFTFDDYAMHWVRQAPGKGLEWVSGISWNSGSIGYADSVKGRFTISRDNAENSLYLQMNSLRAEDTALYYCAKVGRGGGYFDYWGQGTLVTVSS

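AAYL51 was designed without a model: most single CDR substitutions and a random sample of double and triple ones. The scFvs were displayed on barcoded MATa yeast, the peptide on MATalpha yeast. The frequency of each diploid, read from paired DNA barcodes, reflects how well the two displayed proteins bind. A regression on co-assayed BCL2-family reference pairs converts the normalised counts of each replicate to an apparent Kd. The assay was run in three technical replicates.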

Variants are written as CDR1, CDR2 and CDR3 of the heavy chain (limits as in the source). Parent: GFTFDDYAMH, GISWNSGSIGYADSVK, VGRGGGYFDY. Scale: log10 of Kd in nM, estimated from mating counts; low values are strong binders. Averages over replicates are reported, and they cover detected replicates only. "n.d." means that the variant was in the library but no mating with the target was seen in that replicate; the authors take this as a sign of poor binding, and no number exists. As a blank, each scFv also met three strains without target: over library AAYL51, 21% of these pairings were detected, typically at 4.54 and seldom below 3.26. In this assay the parent's reference entry averaged 1.86; its copy inside this library read 0.88.

CDR-H1,CDR-H2,CDR-H3,"replicates, log10 nM",mean log10 Kd (nM)
GFTFDDYAMS,DIAWNSGSIGYADSVK,VGRGGGYFDY,4.65 4.38 4.52,4.51
GFQFDDYAMH,GISWNSGSINYADSVK,VGRGGGHFDY,3.77 n.d. n.d.,3.77
GNHFDDYAMH,GISWNSGSIGYADSVK,VGRGGGAFDY,0.85 0.67 0.02,0.51
GFTFDDYAMH,GISWNSGSIGYADCIK,VGRGTGYFDY,1.72 1.73 1.15,1.53
GFTFDDYAKH,GISWNSGSIRYADSVK,VGAGGGYFDY,4.45 n.d. n.d.,4.45
GFTFDIYAMH,GIGWNSGSIGYADSTK,VGRGGGYFDY,n.d. n.d. n.d.,n.d.
GFTFDDYTMH,GISDNSGSIGYADFVK,VGRGGGYFDY,5.58 4.20 n.d.,4.89
GFTFDDYAMH,IISWNSGSIGYADSVK,VGEGGGYFIY,n.d. n.d. n.d.,n.d.
GFTFWDYAMH,GISWNSMSIGYADSVK,VGSGGGYFDY,3.75 3.41 2.79,3.32
HFTFDDYAMH,GISLNSGSIGYADSVK,DGRGGGYFDY,3.69 n.d. n.d.,3.69
GFTFDKYAMH,GESWNSGSIGYADSVK,VGRGGGYFDY,n.d. n.d. n.d.,n.d.
GFTFDDYVMH,GISWNSGSIGFADSVK,VGRGAGYFDY,n.d. n.d. n.d.,n.d.
SFTYDDYASH,GISWNSGSIGYADSVK,VGRGGGYFDY,n.d. n.d. n.d.,n.d.
GFTFDDYAMH,GISWNSGSIGYADSVK,VGRSGGPFDY,1.16 1.08 0.66,0.97
GFTFDSYAMK,GISWNSGSIGYADSVK,VGGGGGYFDY,n.d. n.d. n.d.,n.d.
GFTFDDYAMH,GIDWNSGSIGYGDSVK,VGRGGGYFDY,n.d. n.d. n.d.,n.d.
WFTFDDYAMH,GISWNSGSIGHAVSVK,VGRGGGYFDY,n.d. n.d. n.d.,n.d.
GFYFDDYAMH,GISWNSGSIGYFDSVK,VGRGGGYFDY,n.d. n.d. n.d.,n.d.
GTTFDDYAMH,GISWNSGWIGYADSVK,VGRGGGEFDY,n.d. n.d. n.d.,n.d.
GFTFDDYAMH,GISWNSGSIGYADSVK,VGRWCGYFDY,4.91 n.d. n.d.,4.91
GFTFDLYAMH,GISWNAGSIGYADSVK,VGAGGGYFDY,1.67 1.46 0.99,1.37
GKTFDDYAMH,GISWNSGSIGYADQVK,VGRGGGYFDY,n.d. n.d. n.d.,n.d.
GFTGDDYAMK,GISLNSGSIGYADSVK,VGRGGGYFDY,n.d. n.d. n.d.,n.d.
GFTFDDYAMH,GISWNSGSIGYADSVK,VGRWAGYFMY,n.d. n.d. n.d.,n.d.
GFTNDDHAMA,GISWNSGSIGYADSVK,VGRGGGYFDY,n.d. n.d. n.d.,n.d.
FFTFDDFAMH,GISWNSGSIGYADPVK,VGRGGGYFDY,n.d. n.d. n.d.,n.d.
GFTFKDYAMH,GISWNSGSIGYADSVK,RGRGGGYNDY,5.47 n.d. n.d.,5.47
GFTFDDYAMH,GINWTSGSIGYADSVK,VGRGGGYFVY,n.d. n.d. n.d.,n.d.
GHTFDDYAMH,GISWNSGSIGVADLVK,VGRGGGYFDY,n.d. n.d. n.d.,n.d.
GFTFDDYAMH,GIFWNSGSDGYADSVK,VGRGGGYFDY,n.d. n.d. n.d.,n.d.
GFTFDDYAMH,GISWNSGSIGIADSVK,VYRGGMYFDY,5.25 5.09 n.d.,5.17
GFTGDDYVMH,GISWNEGSIGYADSVK,VGRGGGYFDY,n.d. n.d. n.d.,n.d.
GFTFQDYIQH,GISWNSGSIGYADSVK,VGRGGGYFDY,4.29 n.d. 5.10,4.70
GFTFDDYAMH,GISWNSGSIGYADSVK,VSRSGGYFRY,4.59 5.90 5.35,5.28
GFTFDDYAMH,GISWWSGSIGYADSVK,QGGGGGYFDY,n.d. 3.45 n.d.,3.45
GFTFDDYIMH,GISWNSGSIGYADSVK,VGRGGGYFAD,4.67 3.23 3.96,3.95
GFTFDDYALH,GISWNSGSIGYADSVK,VGRGGGYFDM,n.d. n.d. n.d.,n.d.
GFTFDDPAMH,GISWNVGSIGYADVVK,VGRGGGYFDY,3.54 n.d. 4.33,3.93
GFTFDDYAFS,GISWNSGSIGWADSVK,VGRGGGYFDY,4.88 4.81 4.57,4.75
GNTFDHYAMH,GISWNSGSIGYADSVH,VGRGGGYFDY,n.d. n.d. n.d.,n.d.
GFTFDDYAMH,GISWNSGSIGYADSVK,VSLGGRYFDY,n.d. n.d. n.d.,n.d.
GFTFDDYAMH,GISNNSGSIGYADSVK,VPRGGGYFKY,2.87 2.79 3.23,2.96
GFTFDDYAMH,GISWNSGSIGYADSVK,VQRHGGYFDY,4.27 4.56 4.83,4.55
GHSFDDFAMH,GISWNSGSIGYADSVK,VGRGGGYFDY,3.14 2.80 2.92,2.96
GFTFDDYAHH,GISWNSGSIGYADSTK,VGRGGGYFDY,n.d. n.d. n.d.,n.d.
GFTFDDYWMH,GISWNSGSIGYADSVK,VYGGGGYFDY,n.d. n.d. n.d.,n.d.
GFTFDDSCMH,GIPWNSGSIGYADSVK,VGRGGGYFDY,n.d. n.d. n.d.,n.d.

The opening 4 entries, copied out:

CDR-H1	CDR-H2	CDR-H3	replicates, log10 nM	mean log10 Kd (nM)
GFTFDDYAMS	DIAWNSGSIGYADSVK	VGRGGGYFDY	4.65 4.38 4.52	4.51
GFQFDDYAMH	GISWNSGSINYADSVK	VGRGGGHFDY	3.77 n.d. n.d.	3.77
GNHFDDYAMH	GISWNSGSIGYADSVK	VGRGGGAFDY	0.85 0.67 0.02	0.51
GFTFDDYAMH	GISWNSGSIGYADCIK	VGRGTGYFDY	1.72 1.73 1.15	1.53

Source: Engelhart et al. 2022 (doi:10.1038/s41597-022-01779-4), MIT Lincoln Laboratory and A-Alpha Bio; data file from the FLAb repository.